Results on one substance are retold here after publication PMC11323223 (Bioorganic chemistry, 2022).

Protein sequences, listed by entry. Tags and fused reporters are not part of them. Lines headed by an entry give the natural chain unless they say otherwise; changes in a name come on top.
UniProt P05413, whole entry: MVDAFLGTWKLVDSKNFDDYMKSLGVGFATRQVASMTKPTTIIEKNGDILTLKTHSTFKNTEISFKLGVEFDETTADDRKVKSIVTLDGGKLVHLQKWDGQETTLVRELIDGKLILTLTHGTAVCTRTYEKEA
UniProt O15540: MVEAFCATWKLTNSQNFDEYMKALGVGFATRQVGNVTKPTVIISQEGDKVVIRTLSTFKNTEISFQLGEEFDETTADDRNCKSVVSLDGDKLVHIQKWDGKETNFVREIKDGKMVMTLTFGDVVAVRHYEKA

For one assay, the target named is FABP3 (Homo sapiens, UniProt P05413). As to the kind of experiment: Fluorescence displacement binding assay. The conditions noted are these: read-out: FABP3 Ki; average ± S.E. of at least three independent experiments.
The target of a further assay is FABP7 (Homo sapiens, UniProt O15540). As to the kind of experiment: Fluorescence displacement binding assay. The conditions noted are these: read-out: FABP7 Ki; average ± S.E. of at least three independent experiments.

In the case of “ε-3-(4′-Fluoro-1,1′-biphenyl-3-ylcarbonyl)-2,4-diphenylcyclobutane-1-carboxylic acid [ε-204]”, the values for the Ki on FABP3 and at FABP7 were 15.5 ± 1.91 µM and 2.19 ± 0.04 µM, respectively.
